Chains of the proteins cited; added tags and fusions are not shown. Lines headed by an entry give the natural chain unless they say otherwise; changes in a name come on top.
UniProt P31645, whole entry: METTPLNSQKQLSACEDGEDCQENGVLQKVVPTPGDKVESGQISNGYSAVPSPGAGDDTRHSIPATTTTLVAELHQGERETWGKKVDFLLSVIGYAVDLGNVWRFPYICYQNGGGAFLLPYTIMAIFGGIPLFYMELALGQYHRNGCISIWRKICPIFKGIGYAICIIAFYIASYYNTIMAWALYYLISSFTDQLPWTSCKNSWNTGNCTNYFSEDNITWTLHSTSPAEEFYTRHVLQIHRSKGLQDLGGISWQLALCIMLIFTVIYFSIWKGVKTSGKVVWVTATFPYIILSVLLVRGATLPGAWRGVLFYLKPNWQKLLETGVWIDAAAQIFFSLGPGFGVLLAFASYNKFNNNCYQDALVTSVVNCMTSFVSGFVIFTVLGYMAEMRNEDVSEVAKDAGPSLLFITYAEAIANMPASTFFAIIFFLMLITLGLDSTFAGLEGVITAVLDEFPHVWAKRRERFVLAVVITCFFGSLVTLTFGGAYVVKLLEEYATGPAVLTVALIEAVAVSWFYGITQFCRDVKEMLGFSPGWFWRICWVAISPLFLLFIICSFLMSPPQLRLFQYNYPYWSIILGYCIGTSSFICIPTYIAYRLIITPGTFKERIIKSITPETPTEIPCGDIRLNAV
UniProt P35367, whole entry: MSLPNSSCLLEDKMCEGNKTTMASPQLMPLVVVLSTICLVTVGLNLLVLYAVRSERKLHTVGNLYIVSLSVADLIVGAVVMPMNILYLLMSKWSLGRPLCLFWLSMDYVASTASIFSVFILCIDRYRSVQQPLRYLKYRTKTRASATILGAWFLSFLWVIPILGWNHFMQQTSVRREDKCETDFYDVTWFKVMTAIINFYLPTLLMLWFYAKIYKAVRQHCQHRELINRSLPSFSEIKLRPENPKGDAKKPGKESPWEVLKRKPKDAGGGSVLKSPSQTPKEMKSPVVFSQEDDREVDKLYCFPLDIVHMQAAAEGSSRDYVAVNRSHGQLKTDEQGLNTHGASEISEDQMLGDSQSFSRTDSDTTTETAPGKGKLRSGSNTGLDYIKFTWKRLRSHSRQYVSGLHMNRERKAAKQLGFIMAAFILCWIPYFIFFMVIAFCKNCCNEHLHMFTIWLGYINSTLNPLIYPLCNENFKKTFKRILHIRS
UniProt P18089, whole entry: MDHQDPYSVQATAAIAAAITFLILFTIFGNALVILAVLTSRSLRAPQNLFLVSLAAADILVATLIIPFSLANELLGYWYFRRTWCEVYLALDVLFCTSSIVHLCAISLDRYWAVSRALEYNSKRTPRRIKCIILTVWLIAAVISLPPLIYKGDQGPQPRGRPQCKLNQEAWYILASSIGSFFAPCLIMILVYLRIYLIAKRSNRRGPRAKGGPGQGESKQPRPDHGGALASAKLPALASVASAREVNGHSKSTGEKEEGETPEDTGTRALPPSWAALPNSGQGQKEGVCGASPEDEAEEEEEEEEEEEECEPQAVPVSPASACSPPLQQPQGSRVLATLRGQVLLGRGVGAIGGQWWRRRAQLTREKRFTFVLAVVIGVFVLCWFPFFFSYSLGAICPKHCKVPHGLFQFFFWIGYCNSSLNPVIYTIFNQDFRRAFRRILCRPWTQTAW
UniProt P14842, whole entry: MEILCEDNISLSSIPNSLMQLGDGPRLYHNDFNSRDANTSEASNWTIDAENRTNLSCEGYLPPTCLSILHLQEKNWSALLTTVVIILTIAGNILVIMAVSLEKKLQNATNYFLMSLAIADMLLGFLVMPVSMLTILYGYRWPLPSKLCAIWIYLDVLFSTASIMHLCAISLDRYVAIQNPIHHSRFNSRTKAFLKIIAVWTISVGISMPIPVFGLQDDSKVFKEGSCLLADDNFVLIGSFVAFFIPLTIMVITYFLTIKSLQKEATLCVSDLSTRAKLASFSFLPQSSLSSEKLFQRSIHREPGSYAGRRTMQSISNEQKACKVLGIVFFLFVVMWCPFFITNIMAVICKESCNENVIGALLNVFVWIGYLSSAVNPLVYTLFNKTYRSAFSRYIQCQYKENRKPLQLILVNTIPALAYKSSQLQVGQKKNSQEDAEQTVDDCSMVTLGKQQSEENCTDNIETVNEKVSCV
UniProt P18825, whole entry: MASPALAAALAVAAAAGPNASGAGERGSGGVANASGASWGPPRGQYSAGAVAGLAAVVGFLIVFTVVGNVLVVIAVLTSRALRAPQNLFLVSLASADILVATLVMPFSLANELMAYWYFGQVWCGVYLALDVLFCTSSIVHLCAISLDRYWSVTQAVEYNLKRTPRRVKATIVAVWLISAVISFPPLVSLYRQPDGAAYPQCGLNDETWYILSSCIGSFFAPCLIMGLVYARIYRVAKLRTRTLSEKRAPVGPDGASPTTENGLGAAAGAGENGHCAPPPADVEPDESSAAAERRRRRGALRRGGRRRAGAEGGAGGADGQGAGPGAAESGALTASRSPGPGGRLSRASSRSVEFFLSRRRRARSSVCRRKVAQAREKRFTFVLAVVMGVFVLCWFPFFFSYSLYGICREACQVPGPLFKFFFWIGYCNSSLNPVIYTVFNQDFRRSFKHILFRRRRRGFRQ
UniProt P28221: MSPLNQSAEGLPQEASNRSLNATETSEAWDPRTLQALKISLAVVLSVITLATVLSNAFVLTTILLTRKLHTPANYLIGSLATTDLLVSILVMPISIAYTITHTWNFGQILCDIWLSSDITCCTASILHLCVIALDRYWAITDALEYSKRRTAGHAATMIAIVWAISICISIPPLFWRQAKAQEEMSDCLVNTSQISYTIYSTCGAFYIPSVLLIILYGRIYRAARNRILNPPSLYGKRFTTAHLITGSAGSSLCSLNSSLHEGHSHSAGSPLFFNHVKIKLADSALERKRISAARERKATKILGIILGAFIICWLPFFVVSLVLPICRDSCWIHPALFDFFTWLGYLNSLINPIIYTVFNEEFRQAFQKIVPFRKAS
UniProt P33535, whole entry: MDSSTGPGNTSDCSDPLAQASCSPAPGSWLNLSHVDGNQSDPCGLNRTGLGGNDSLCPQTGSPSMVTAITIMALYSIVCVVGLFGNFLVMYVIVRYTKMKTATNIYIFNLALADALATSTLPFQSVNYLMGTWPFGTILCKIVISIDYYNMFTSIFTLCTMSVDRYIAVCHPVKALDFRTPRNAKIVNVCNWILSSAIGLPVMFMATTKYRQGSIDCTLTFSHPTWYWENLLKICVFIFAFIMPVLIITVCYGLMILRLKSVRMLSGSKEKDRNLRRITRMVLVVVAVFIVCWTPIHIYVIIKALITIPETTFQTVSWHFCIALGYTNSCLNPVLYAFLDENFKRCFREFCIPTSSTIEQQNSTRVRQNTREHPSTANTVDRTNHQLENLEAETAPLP
UniProt P23977, whole entry: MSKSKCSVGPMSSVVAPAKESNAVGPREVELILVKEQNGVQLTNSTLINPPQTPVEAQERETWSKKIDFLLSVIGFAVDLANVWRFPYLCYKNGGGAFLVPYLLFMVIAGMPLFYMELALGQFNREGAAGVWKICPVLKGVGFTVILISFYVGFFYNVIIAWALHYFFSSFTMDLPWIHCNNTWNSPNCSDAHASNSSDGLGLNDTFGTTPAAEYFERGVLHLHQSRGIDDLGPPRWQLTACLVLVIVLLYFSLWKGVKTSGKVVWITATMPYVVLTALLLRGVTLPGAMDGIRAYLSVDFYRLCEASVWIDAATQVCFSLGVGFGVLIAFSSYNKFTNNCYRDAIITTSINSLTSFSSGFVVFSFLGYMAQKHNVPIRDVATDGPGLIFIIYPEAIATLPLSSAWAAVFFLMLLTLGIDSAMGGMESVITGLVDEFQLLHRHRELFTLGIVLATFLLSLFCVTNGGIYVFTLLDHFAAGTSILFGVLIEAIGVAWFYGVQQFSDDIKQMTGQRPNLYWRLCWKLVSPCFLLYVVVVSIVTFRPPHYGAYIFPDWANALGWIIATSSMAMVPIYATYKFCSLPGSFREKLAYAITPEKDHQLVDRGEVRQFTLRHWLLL
UniProt P28222, whole entry: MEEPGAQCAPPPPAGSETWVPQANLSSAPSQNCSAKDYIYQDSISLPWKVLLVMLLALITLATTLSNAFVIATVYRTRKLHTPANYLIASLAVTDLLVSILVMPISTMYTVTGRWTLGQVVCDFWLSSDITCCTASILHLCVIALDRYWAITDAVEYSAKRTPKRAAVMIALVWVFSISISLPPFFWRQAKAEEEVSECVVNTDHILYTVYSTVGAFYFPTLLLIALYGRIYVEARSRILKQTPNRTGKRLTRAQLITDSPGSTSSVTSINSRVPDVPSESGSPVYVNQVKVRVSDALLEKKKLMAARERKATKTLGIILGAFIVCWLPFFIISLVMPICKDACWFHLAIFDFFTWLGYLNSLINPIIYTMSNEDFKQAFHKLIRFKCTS
UniProt P28566: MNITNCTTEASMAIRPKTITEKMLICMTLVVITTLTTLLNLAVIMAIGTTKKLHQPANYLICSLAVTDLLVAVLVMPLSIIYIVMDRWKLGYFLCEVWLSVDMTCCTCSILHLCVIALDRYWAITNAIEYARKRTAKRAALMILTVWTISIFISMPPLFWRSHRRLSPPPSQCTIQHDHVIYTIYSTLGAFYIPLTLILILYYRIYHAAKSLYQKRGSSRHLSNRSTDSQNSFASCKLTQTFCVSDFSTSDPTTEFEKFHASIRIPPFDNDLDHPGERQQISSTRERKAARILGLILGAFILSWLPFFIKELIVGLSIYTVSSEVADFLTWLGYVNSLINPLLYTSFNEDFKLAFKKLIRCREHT
UniProt P07550, whole entry: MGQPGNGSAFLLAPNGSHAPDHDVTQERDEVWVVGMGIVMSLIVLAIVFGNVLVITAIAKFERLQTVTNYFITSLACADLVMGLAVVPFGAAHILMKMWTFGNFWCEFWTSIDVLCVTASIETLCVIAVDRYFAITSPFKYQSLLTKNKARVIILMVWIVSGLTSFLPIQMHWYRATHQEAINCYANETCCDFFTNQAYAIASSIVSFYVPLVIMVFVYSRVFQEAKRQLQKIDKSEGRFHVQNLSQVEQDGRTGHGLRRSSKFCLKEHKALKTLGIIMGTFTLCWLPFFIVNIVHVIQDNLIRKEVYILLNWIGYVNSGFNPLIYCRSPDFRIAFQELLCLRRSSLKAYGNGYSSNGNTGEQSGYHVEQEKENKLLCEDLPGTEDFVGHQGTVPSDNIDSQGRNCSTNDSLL

According to BindingDB's records for doi:10.1007/bf02245606 (Janssen Research Foundation, 1996):

Assays:
[1] = molecular target: Sodium-dependent serotonin transporter (Homo sapiens, UniProt P31645)
[2] = molecular target: Histamine H1 receptor (Homo sapiens, UniProt P35367)
[3] = molecular target: Alpha-2B adrenergic receptor (Homo sapiens, UniProt P18089)
[4] = molecular target: 5-hydroxytryptamine receptor 2A (Rattus norvegicus, UniProt P14842)
[5] = molecular target: Alpha-2C adrenergic receptor (Homo sapiens, UniProt P18825)
[6] = molecular target: 5-hydroxytryptamine receptor 1D (Homo sapiens, UniProt P28221)
[7] = molecular target: T1, 5-hydroxytryptamine receptor 1F (Homo sapiens, UniProt P30939)
T1 sequence (P30939 whole entry): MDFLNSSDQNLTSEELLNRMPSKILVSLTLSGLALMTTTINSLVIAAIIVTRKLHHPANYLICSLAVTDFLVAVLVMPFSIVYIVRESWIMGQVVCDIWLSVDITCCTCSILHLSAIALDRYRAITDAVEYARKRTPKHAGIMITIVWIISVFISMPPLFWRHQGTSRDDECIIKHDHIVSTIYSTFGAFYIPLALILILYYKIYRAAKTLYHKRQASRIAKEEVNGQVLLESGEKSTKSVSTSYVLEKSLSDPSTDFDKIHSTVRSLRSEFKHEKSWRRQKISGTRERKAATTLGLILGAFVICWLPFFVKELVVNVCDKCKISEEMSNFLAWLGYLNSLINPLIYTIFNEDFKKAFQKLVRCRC

[8] = molecular target: Mu-type opioid receptor (Rattus norvegicus, UniProt P33535)
[9] = molecular target: Sodium-dependent dopamine transporter (Rattus norvegicus, UniProt P23977)
[10] = molecular target: 5-hydroxytryptamine receptor 1B (Homo sapiens, UniProt P28222)
[11] = molecular target: 5-hydroxytryptamine receptor 1E (Homo sapiens, UniProt P28566)
[12] = molecular target: Beta-2 adrenergic receptor (Homo sapiens, UniProt P07550)

`CN1CCN(C2=c3ccccc3=Nc3ccc(Cl)cc3N2)CC1` [6-chloro-10-(4-methylpiperazin-1-yl)-2,9-diazatricyclo[9.4.0.0^{3,8}]pentadeca-1,3(8),4,6,10,12,14-heptaene] was tested, and the Ki [1] was greater than 1000 nM, the Ki [2] was 0.23 nM and the Ki [3] was 22 nM.

Compound `CN(C)CCOC1=Cc2ccccc2Sc2ccc(Cl)cc21` [2-Chloro-11-(2-(dimethylamino)ethoxy)dibenzo(b,f)thiepin] has a Ki [4] of 0.91 nM, a Ki [2] of 0.62 nM and a Ki [5] of 150 nM.

With `OCCOCCN1CCN(C2=Nc3ccccc3Sc3ccccc32)CC1` [2-[2-(4-dibenzo[b,f][1,4]thiazepin-11-ylpiperazin-1-yl)ethoxy]ethanol] the Ki [6] was 5000 nM and the Ki [7] was 2240 nM.

In the case of `CN1CC2c3ccccc3Oc3ccc(Cl)cc3C2C1` (stereo unspecified) [NSC_163091], the Ki [8] is reported as greater than 1000 nM and the Ki [9] is reported as greater than 1000 nM.

For `O=C(CCCN1CCC(O)(c2ccc(Cl)cc2)CC1)c1ccc(F)cc1` [4-[4-(4-Chloro-phenyl)-4-hydroxy-piperidin-1-yl]-1-(4-fluoro-phenyl)-butan-1-one;propionate(HCl)], the Ki [10] was 270 nM and the Ki [11] was 5000 nM.

In the case of `O=C1NCN(c2ccccc2)C12CCN(CC1COc3ccccc3O1)CC2` (stereo unspecified) [8-(2,3-Dihydro-benzo[1,4]dioxin-2-ylmethyl)-1-phenyl-1,3,8-triaza-spiro[4.5]decan-4-one], the Ki [3] is reported as 1.8 nM.

`Cc1cc2c(s1)=Nc1ccccc1NC=2N1CCN(C)CC1` [CAS_132539-06-1] gave a Ki [4] of 1.9 nM.

`O=C1NCCN1CCN1CCC(c2cn(-c3ccc(F)cc3)c3ccc(Cl)cc23)CC1` [1-[2-[4-[5-chloro-1-(4-fluorophenyl)-indol-3-yl]-1-piperidyl]ethyl]imidazolidin-2-one] showed a Ki [12] of 5000 nM and a Ki [3] of 450 nM.

Counter-ions that a name gives are not always drawn.
